In PMC3612139 (Bioorganic chemistry, 2013) one finds HL-60 differentiation ratio and 24-OHase transcription ratio data, which are given here for 1 compound.

Assay [1] concerns HL-60 promyelocytes. The assay can be described thus: HL-60 differentiation. The class given is cell-based. To be noted: average ratio of the analogue EC50 to the EC50 for 1α,25-(OH)2D3. The gist of the method:
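Differentiation of HL-60 promyelocytes to monocytes, scored as the percentage of cells reducing nitro blue tetrazolium. EC50 taken from dose–response curves as the concentration giving 50% maturation. Ratio is the average of test compound EC50 over 1α,25-(OH)2D3 EC50. Run in duplicate on at least two occasions.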

The test system of assay [2] is 24-hydroxylase gene reporter plasmid in rat osteosarcoma cells. In words: 24-hydroxylase transcription. The assay is classed as cell-based. To be noted: average ratio of the EC50 for the analogue to the EC50 for 1α,25-(OH)2D3.

As for `C=C1/C(=C\C=C2/CCC[C@]3(C)[C@@H]([C@H](C)CCCC(C)(C)O)CC[C@@H]23)C[C@@H](O)C[C@@H]1O` [Compound 1, 1α,25-Dihydroxyvitamin D3], the HL-60 differentiation ratio in assay [1] stood at 1. In addition, the 24-OHase transcription ratio in assay [2] is on record as 1.
